Test results: patent US20020061838A1, “Peptide pharmaceutical formulations” (priority 2000, published 2002)

Assay: Tolerability and response after subcutaneous or intravenous delivery of the formulations in humans
Settings: subcutaneous, about 1 mL

SMILES: CC[C@H](C)[C@H](NC(=O)[C@H](C)NC(=O)[C@H](CC(=O)O)NC(=O)[C@H](C)NC(=O)[C@@H](N)Cc1ccc(O)cc1)C(=O)N[C@@H](Cc1ccccc1)C(=O)N[C@H](C(=O)N[C@@H](CC(N)=O)C(=O)N[C@@H](CO)C(=O)N[C@@H](Cc1ccc(O)cc1)C(=O)N[C@@H](CCCNC(=N)N)C(=O)N[C@@H](CCCCN)C(=O)N[C@H](C(=O)N[C@@H](CC(C)C)C(=O)NCC(=O)N[C@@H](CCC(N)=O)C(=O)N[C@@H](CC(C)C)C(=O)N[C@@H](CO)C(=O)N[C@@H](C)C(=O)N[C@@H](CCCNC(=N)N)C(=O)N[C@@H](CCCCN)C(=O)N[C@@H](CC(C)C)C(=O)N[C@@H](CC(C)C)C(=O)N[C@@H](CCC(N)=O)C(=O)N[C@@H](CC(=O)O)C(=O)N[C@H](C(=O)N[C@@H](CCSC)C(=O)N[C@@H](CO)C(=O)N[C@@H](CCCNC(=N)N)C(=O)N[C@@H](CCC(N)=O)C(=O)N[C@@H](CCC(N)=O)C(=O)NCC(=O)N[C@@H](CCC(=O)O)C(=O)N[C@@H](CO)C(=O)N[C@@H](CC(N)=O)C(=O)N[C@@H](CCC(N)=O)C(=O)N[C@@H](CCC(=O)O)C(=O)N[C@@H](CCCNC(=N)N)C(=O)NCC(=O)N[C@@H](C)C(=O)N[C@@H](CCCNC(=N)N)C(=O)N[C@@H](C)C(=O)N[C@@H](CCCNC(=N)N)C(=O)N[C@@H](CC(C)C)C(N)=O)[C@@H](C)CC)C(C)C)[C@@H](C)O [GRF, GRF(1-44)amide]
- response as assessed by the level of peptide drug appearing in the blood: rapid response
